Measured values from PMC5063576, “High Potency VEGFRs/MET/FMS Triple Blockade by TAS-115 Concomitantly Suppresses Tumor Progression and Bone Destruction in Tumor-Induced Bone Disease Model with Lung Carcinoma Cells” (PLoS ONE, 2016).

Test system: M-CSF dependent bone marrow macrophages (MDBMs)
Test: In vitro osteoclast differentiation assay (TRAP activity)
Format: cell-based, mouse
Settings: MDBMs with hM-CSF and rhsRANKL for 4 days
Protocol: To prepare macrophage colony-stimulating factor (M-CSF) dependent bone marrow macrophages (MDBMs), bone marrow cells were obtained from the femurs of male BALB/c mice (CLEA Japan) and adherent cells were cultured with human M-CSF (hM-CSF; 10000 U/mL) for 6 days. MDBMs were collected and cultured with hM-CSF (10000 U/mL) and recombinant human soluble RANKL (rhsRANKL)-GST (5 nM) for 4 days (25000 cells/well in a 96 well flat plate) for induction of differentiation into osteoclasts. Test compounds were then added to the culture media at the indicated concentration. TRAP activities were measured using the commercially available TRACP and ALP Assay Kit (TAKARA BIO INC).

COc1cc2nccc(Oc3ccc(NC(=O)C4(C(=O)Nc5ccc(F)cc5)CC4)cc3)c2cc1OC [Cabozantinib]
concentration that potently inhibited / markedly affected RANKL and M-CSF-induced mouse osteoclast formation: 1 µM

CCN(CC)CCNC(=O)c1c(C)[nH]c(/C=C2\C(=O)Nc3ccc(F)cc32)c1C [Sunitinib]
concentration that potently inhibited / markedly affected RANKL and M-CSF-induced mouse osteoclast formation: 0.1 µM
